Measured values as given in patent US10336775B2 (Asceneuron SA, priority 2014, dated 2019).

The chains behind the UniProt entries cited, without tags or fusion partners. Where a name states a change or a piece, a line headed by the entry shows the natural chain unless it says otherwise.
UniProt O60502: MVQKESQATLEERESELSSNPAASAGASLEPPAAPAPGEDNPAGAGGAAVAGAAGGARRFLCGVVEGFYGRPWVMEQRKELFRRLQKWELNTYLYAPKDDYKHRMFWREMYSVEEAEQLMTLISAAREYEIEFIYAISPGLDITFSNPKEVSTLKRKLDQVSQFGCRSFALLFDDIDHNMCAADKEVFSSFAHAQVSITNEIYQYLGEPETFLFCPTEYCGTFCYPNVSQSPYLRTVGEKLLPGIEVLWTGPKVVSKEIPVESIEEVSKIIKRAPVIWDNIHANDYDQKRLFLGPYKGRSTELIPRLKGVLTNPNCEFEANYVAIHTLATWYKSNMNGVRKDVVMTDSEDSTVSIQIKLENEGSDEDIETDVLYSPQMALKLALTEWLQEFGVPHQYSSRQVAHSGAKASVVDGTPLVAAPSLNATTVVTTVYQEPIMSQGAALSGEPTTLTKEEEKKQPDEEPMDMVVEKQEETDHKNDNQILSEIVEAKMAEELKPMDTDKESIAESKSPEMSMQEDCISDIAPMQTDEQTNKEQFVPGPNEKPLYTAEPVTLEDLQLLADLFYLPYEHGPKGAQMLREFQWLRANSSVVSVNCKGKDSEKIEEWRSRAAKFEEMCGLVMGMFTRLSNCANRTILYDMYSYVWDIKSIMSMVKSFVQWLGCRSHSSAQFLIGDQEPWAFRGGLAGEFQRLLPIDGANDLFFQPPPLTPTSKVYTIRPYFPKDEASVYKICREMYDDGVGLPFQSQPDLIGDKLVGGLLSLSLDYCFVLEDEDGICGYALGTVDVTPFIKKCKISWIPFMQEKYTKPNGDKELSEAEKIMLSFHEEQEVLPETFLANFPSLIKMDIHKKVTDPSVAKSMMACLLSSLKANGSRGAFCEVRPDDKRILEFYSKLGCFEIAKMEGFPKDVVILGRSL

Molecular target: His-Tagged hOGA (human O-GlcNAcase) (Homo sapiens (Human), UniProt O60502)
Experiment: Human O-GlcNAcase enzyme inhibition assay (Example B01)
Assay type: biochemical
Details: OGA enzyme inhibition assay; activity range classes defined in μM

“N-(5-(4-(1-(4-chloro-3-methoxyphenyl)ethyl)piperazin-1-yl)-1,3,4-thiadiazol-2-yl)acetamide [Example 88]” showed an IC50 of 1 to 10 µM.
